The values that follow are results of earlier work, collected in patent US8221566B1.

This is a selection: effects in other tests are not listed, and their absence says nothing.

One data set deals with water lines. Particulars: aqueous; cited from earlier work.
The subject of data set [1] is Saccharomyces diastaticus. The note with it: aqueous, in 5 min; cited from earlier work.

hydrogen fluoride: the “Concentration of aq. HF that sterilizes water lines” value in the data set on water lines is recorded as 1-100 ppm. In data set [1], the “Concentration of aq. HF that destroys the organism” value was 200 ppm.
